# The list shows a part of the results, in another mix than the full data. Activity calls are given as the source filed them. Calls come from the whole dose curve; as a rule, active = well fitted inhibition curve with a large enough effect; inconclusive = small, poorly fitted or top-dose-only effect; inactive = flat fitted curve, though single readings scatter.
# Molecular target: Luciferin 4-monooxygenase (Photuris pensylvanica) (UniProt Q27757)
# Assay: Counterscreen for Luciferase (Kinase-Glo TM) Inhibition; note: nearly all actives have a fitted effect of over 60% in size
# Conditions: ATP luminescence, 8 min
# Procedure: NCGC Assay Overview: NIH Molecular Libraries Screening Centers Network [MLSCN] NIH Chemical Genomics Center [NCGC] MLSCN Grant: None Luciferase (Kinase-Glo, Promega Corporation) was assayed for its ability to generate light using ATP and luciferin as substrates. The ATP concentration in the assay (10 uM) was within the linear range of enzyme activity for the assay conditions used.
# NCGC Assay Protocol Summary: Four uL of substrate mix (final concentration, 50 mM imidazole pH 7.2, 50 mM KCl, 7 mM MgCl2, 10 uM ATP, 0.01% Tween 20, 0.05% BSA) was dispensed into white 1536 well plates. Twenty-three nL of compound was delivered by a pin tool and 2 uL of luciferase detection mix (Kinase-Glo, Promega)) was added. Following 8-minute incubation at ambient temperature, luminescence was measured by a ViewLux (Perkin Elmer) at 5 seconds exposure/plate.
# [1] = at 38.3 µM (top of the series) unless noted
# % is set by controls: 0 for no effect and ±100 for the full control effect.
compound,measurement,setting,value
Cc1cc(SC(NC=O)C(Cl)(Cl)Cl)ncn1 (stereo not drawn),"activity change, negative = inhibition",[1],inactive: -2.26%
O=P(Nc1ccccn1)(c1cccc2ccccc12)c1cccc2ccccc12,"activity change, negative = inhibition",[1],inactive: 3.16%
Cc1cc(SC(NC(=O)c2ccccc2)C(Cl)(Cl)Cl)nc(C(C)C)n1 (stereo not drawn),"activity change, negative = inhibition",[1],inactive: 3.24%
CCC(C)N(CC(C)C)C(=S)SC(NC(C)=O)C(Cl)(Cl)Cl (stereo not drawn),"activity change, negative = inhibition",[1],inactive: -2.01%
COP1(=S)c2c(C)nn(CCC#N)c2N=C(c2ccc(F)cc2)N1C (stereo not drawn),"activity change, negative = inhibition",[1],inactive: -3.4%
O=C(COc1ccccc1)OC1CN2CCC1CC2 (stereo not drawn),"activity change, negative = inhibition",[1],inactive: 3.12%
O=C(O)[C@@H](O)c1ccc([As](=O)(O)O)cc1,"activity change, negative = inhibition",[1],inactive: -0.645% [at 7.66 µM]
O=C(OC1CN2CCC1CC2)C12CC3CC(CC(C3)C1)C2 (stereo not drawn),"activity change, negative = inhibition",[1],inactive: 2.55%
Cc1cc(=O)[nH]c(N[N+](=O)[O-])n1,"activity change, negative = inhibition",[1],inactive: -1.04%
Cc1c2c(nc3ccccc13)SC(C(Cl)Cl)C2 (stereo not drawn),"activity change, negative = inhibition",[1],inactive: -1.91%
COc1ccc2nc(NP(=O)(c3ccccc3)c3ccccc3)sc2c1,"activity change, negative = inhibition",[1],inactive: 3.07%
NC(=O)Nc1cc([As](=O)(O)O)cc(I)c1O,"activity change, negative = inhibition",[1],inactive: -5.15% [at 7.66 µM]
[N-]=[N+]=NCC(N)=O,"activity change, negative = inhibition",[1],inactive: -8.34% [at 7.66 µM]
ClCCSc1nnc(-c2cccnc2)o1,"activity change, negative = inhibition",[1],inactive: -4.91%
O=[As]c1ccc(S(=O)(=O)NCCO)cc1 (stereo not drawn),"activity change, negative = inhibition",[1],inactive: -2.97% [at 7.66 µM]
CC(C)NC(=O)NP(=O)(Oc1ccccc1)Oc1ccccc1,"activity change, negative = inhibition",[1],inactive: -2.2%
CCN(CC)C(=S)SC(NC=O)C(Cl)(Cl)Cl (stereo not drawn),"activity change, negative = inhibition",[1],inactive: -4.51%
O=[N+]([O-])c1cc([N+](=O)[O-])c(-c2ccn[nH]2)s1,"activity change, negative = inhibition",[1],inactive: -0.506%
Cc1ccc2nc3c(c(C)c2c1)CC(C(Cl)Cl)S3 (stereo not drawn),"activity change, negative = inhibition",[1],inactive: 5.04%
NC(=O)Nc1ccc([As](=O)(O)O)cc1,"activity change, negative = inhibition",[1],inactive: 3.05% [at 17.1 µM]
O=[N+]([O-])CC(O)c1ccc([N+](=O)[O-])cc1 (stereo not drawn),"activity change, negative = inhibition",[1],inactive: 0.528%
O=[N+]([O-])c1ccc2c(c1)nnn2O,"activity change, negative = inhibition",[1],inactive: -2.65%
CCOP1(=S)c2c(C)nn(CCC#N)c2N=C(c2ccc(F)cc2)N1C (stereo not drawn),"activity change, negative = inhibition",[1],inactive: 1.94%
CN(C(=O)Cc1ccccc1)[C@@H]1CC[C@]2(CCCO2)C[C@H]1N1CCCC1,"activity change, negative = inhibition",[1],inactive: -8.88%
CCOP1(=S)c2c(C)nn(CCC#N)c2N=C(c2ccccc2F)N1C (stereo not drawn),"activity change, negative = inhibition",[1],inactive: -1.08%
O=P(Nc1nccs1)(Oc1ccccc1)Oc1ccccc1,"activity change, negative = inhibition",[1],inactive: 0.625%
O=P(Nc1nccs1)(c1ccccc1)c1nc2ccccc2s1 (stereo not drawn),"activity change, negative = inhibition",[1],inactive: 62.2%
O=[As](O)(O)c1ccc([As](=O)(O)O)cc1,"activity change, negative = inhibition",[1],inactive: -1.99% [at 7.66 µM]
NS(=O)(=O)Cc1ccc([As](=O)(O)O)cc1,"activity change, negative = inhibition",[1],inactive: -3.99% [at 7.66 µM]
Cc1ccc(NCCc2c([N+](=O)[O-])cc([N+](=O)[O-])cc2[N+](=O)[O-])cc1,"activity change, negative = inhibition",[1],inactive: -1.76%
O=C(CC(=O)c1ccccc1)O[C@H]1CN2CCC1CC2,"activity change, negative = inhibition",[1],inactive: -3.44% [at 7.66 µM]
COc1cc(C2NCCC3(OCCO3)C2(C)C)cc(OC)c1OC (stereo not drawn),"activity change, negative = inhibition",[1],inactive: 1.05%
CCOP(=O)(Nc1cccc2ccccc12)OCC,"activity change, negative = inhibition",[1],inactive: -0.162%
COc1cc(C(=O)NCC2(N3CCOCC3)CCCCC2)cc(Cl)c1OC(C)C,"activity change, negative = inhibition",[1],inactive: -0.0002%
CN(C(=O)Cc1ccc(Cl)c(Cl)c1)[C@@H]1CC[C@]2(CCCO2)C[C@H]1N1CCCC1,"activity change, negative = inhibition",[1],inactive: -4.25%
Cc1cccc(OCC(=O)OC2CN3CCC2CC3)c1 (stereo not drawn),"activity change, negative = inhibition",[1],inactive: 2.05%
CN(C(=O)Cc1ccc(Cl)c(Cl)c1)[C@@H]1CCCC[C@H]1N1CCCC1,"activity change, negative = inhibition",[1],inactive: -5.66%
CC(C)/C=N\N=C(\N)N[N+](=O)[O-],"activity change, negative = inhibition",[1],inactive: -0.793%
CN(CCCl)Cc1cc(Cl)c(NC2=NCCN2)c(Cl)c1,"activity change, negative = inhibition",[1],inactive: -9.85%
O=P1(Nc2ccccn2)COc2ccccc2OC1,"activity change, negative = inhibition",[1],inactive: 0.259%
O=P1(Nc2ncccn2)COc2ccccc2OC1,"activity change, negative = inhibition",[1],inactive: -2.18%
Cc1ccc(OCC(=O)OC2CN3CCC2CC3)cc1 (stereo not drawn),"activity change, negative = inhibition",[1],inactive: 0.441%
O=P1(Nc2ccc(Br)cn2)COc2ccccc2OC1,"activity change, negative = inhibition",[1],inactive: -6.02%
Cc1nn(-c2ccccc2)c2c1P(=O)(N1CCOCC1)N(C)C(c1ccccc1)=N2 (stereo not drawn),"activity change, negative = inhibition",[1],inactive: 2.34%
CC1CCC(C(C)C)C(OP(=O)(Nc2ccccn2)c2ccccc2)C1 (stereo not drawn),"activity change, negative = inhibition",[1],inactive: -1.38%
CC(=O)NC(SC(=S)N(C)C)C(Cl)(Cl)Cl (stereo not drawn),"activity change, negative = inhibition",[1],inactive: 0.506%
C(Cc1nn[nH]n1)Cc1nn[nH]n1,"activity change, negative = inhibition",[1],inactive: 3.55%
O=C(OC1CN2CCC1CC2)c1cccc(Cl)c1 (stereo not drawn),"activity change, negative = inhibition",[1],inactive: -3.16%
O=P(Nc1ccccn1)(c1ccc(Br)cc1)c1ccc(Br)cc1,"activity change, negative = inhibition",[1],inactive: -2.44%
[N-]=[N+]=Nc1ccc([As](=O)(O)O)cc1,"activity change, negative = inhibition",[1],inactive: -4% [at 7.66 µM]
CN1CCC[C@H](OC(=O)C(c2ccccc2)c2ccccc2)C1,"activity change, negative = inhibition",[1],inactive: -3.81% [at 7.66 µM]
C[C@@H](O)COc1ccc([As](=O)(O)O)cc1N,"activity change, negative = inhibition",[1],inactive: -3.66% [at 7.66 µM]
O=P(Nc1nccs1)(c1ccccc1)c1ccccc1,"activity change, negative = inhibition",[1],inactive: 3.83%
CC(C)C(=O)NC(Sc1ccccc1)C(Cl)(Cl)Cl (stereo not drawn),"activity change, negative = inhibition",[1],inactive: -0.812%
c1nnnn1CCn1cnnn1,"activity change, negative = inhibition",[1],inactive: -4.63%
CC(=O)Nc1ccc(Oc2c([N+](=O)[O-])cc([N+](=O)[O-])cc2[N+](=O)[O-])cc1,"activity change, negative = inhibition",[1],inactive: -1.73%
O=P1(Nc2nc3ccc(Cl)cc3s2)COc2ccccc2O1 (stereo not drawn),"activity change, negative = inhibition",[1],inactive: -5.17%
CCOc1ccc(C2=NCC(CBr)S2)cc1 (stereo not drawn),"activity change, negative = inhibition",[1],inactive: 1.84%
CC(C)(C)C(=O)NC(Sc1ccccc1)C(Cl)(Cl)Cl (stereo not drawn),"activity change, negative = inhibition",[1],inactive: -1.5%
COC(=O)c1cc2c(s1)N=C(c1ccccc1)N(C)P2(=O)N1CCOCC1 (stereo not drawn),"activity change, negative = inhibition",[1],inactive: -0.524%
CC(=O)NC(SC(=S)N(CC(C)C)CC(C)C)C(Cl)(Cl)Cl (stereo not drawn),"activity change, negative = inhibition",[1],inactive: 1.57%
Cc1ccc(OP(=O)(Nc2ccccn2)Oc2ccc(C)cc2)cc1,"activity change, negative = inhibition",[1],inactive: 1.69%
CN(C(=O)Cc1ccc(Cl)c(Cl)c1)[C@@H]1CCCC[C@@H]1N1CCCC1,"activity change, negative = inhibition",[1],inactive: -1.71%
CCC(=O)N1C2C3N(C(=O)CC)C1C1N(C(=O)CC)C(C(N1C(=O)CC)N3C(=O)CC)N2C(=O)CC,"activity change, negative = inhibition",[1],inactive: -2.58%
O=c1c2cc([N+](=O)[O-])ccc2[nH]c2c([N+](=O)[O-])cc([N+](=O)[O-])cc12,"activity change, negative = inhibition",[1],inactive: -13.7%
O=C(NC1CCS(=O)(=O)C1)NP(=S)(Oc1ccccc1)Oc1ccccc1 (stereo not drawn),"activity change, negative = inhibition",[1],inactive: 2.84%
CCNC(=S)/N=C(\N)N[N+](=O)[O-],"activity change, negative = inhibition",[1],inactive: -1.3%
c1ccc(-c2nn[nH]n2)c(-c2nn[nH]n2)c1,"activity change, negative = inhibition",[1],inactive: 1.09%
CCOC(=O)NC(Sc1ccccc1)C(Cl)(Cl)Cl (stereo not drawn),"activity change, negative = inhibition",[1],inactive: -2.49%
[N-]=[N+]=NCC(O)CN=[N+]=[N-] (stereo not drawn),"activity change, negative = inhibition",[1],inactive: -2.68% [at 7.66 µM]
C(Cc1nn[nH]n1)c1nn[nH]n1,"activity change, negative = inhibition",[1],inactive: -0.184% [at 7.66 µM]
CCN(N=Nc1nonc1N)c1nonc1N,"activity change, negative = inhibition",[1],inactive: 2.05%
Cc1cc(SC(NC(=O)c2ccc(F)cc2)C(Cl)(Cl)Cl)ncn1 (stereo not drawn),"activity change, negative = inhibition",[1],inactive: 4.61%
CCOP(=O)(Nc1ccccc1)OCC,"activity change, negative = inhibition",[1],inactive: 3.38%
CN(C(=O)Cc1ccc(Cl)c(Cl)c1)[C@H]1CCCC[C@@H]1N1CCCC1,"activity change, negative = inhibition",at 38.3 µM (top of the series),inactive: -0.68% [middle of 5 runs]
same,"activity change, negative = inhibition",at 39.9 µM (top of the series),inactive: 1.21%
CC(C)CC(=O)NC(Sc1ccc(Cl)cc1)C(Cl)(Cl)Cl (stereo not drawn),"activity change, negative = inhibition",[1],inactive: -1.23%
Oc1ccccc1CNc1ccccn1,"activity change, negative = inhibition",[1],inactive: -0.577%
O=C(NC(Sc1ccncn1)C(Cl)(Cl)Cl)c1ccccc1 (stereo not drawn),"activity change, negative = inhibition",[1],inactive: 0.639%
Cc1c2non([O-])c-2c(C)[n+](=O)[n+]1[O-],"activity change, negative = inhibition",[1],inactive: 0.406%
NCC[C@@H](N)CSP(=O)(O)O,"activity change, negative = inhibition",[1],inactive: -3.77% [at 7.66 µM]
NC(=O)c1cc([N+](=O)[O-])cc([N+](=O)[O-])c1N,"activity change, negative = inhibition",[1],inactive: -2.65%
Cc1ccc(N/C(=N/P(=O)(N2CCOCC2)N2CCOCC2)N2CCOCC2)cc1,"activity change, negative = inhibition",[1],inactive: -1.16%
COc1ccccc1OP(=O)(Nc1ccc(C)cn1)Oc1ccccc1OC,"activity change, negative = inhibition",[1],inactive: -1.07%
O=[N+]([O-])c1ccc(C[As](=O)(O)O)cc1,"activity change, negative = inhibition",[1],inactive: 2.62% [at 7.66 µM]
CN1CCCC(OC(=O)C(c2ccccc2)c2ccccc2)C1 (stereo not drawn),"activity change, negative = inhibition",[1],inactive: -4.08%
CCN(/C(=N/P(=O)(N1CCOCC1)N1CCOCC1)N1CCOCC1)c1ccc(OC)cc1,"activity change, negative = inhibition",[1],inactive: 1.79%
CC(C)=N/N=C(\N)N[N+](=O)[O-],"activity change, negative = inhibition",[1],inactive: 1.12%
CN(C)C(=O)OCCc1n(C)cc[n+]1C,"activity change, negative = inhibition",[1],inactive: -0.775%
CC(=O)C1=CCCC2CCC1N2 (stereo not drawn),"activity change, negative = inhibition",[1],inactive: -3.39% [at 39.9 µM]
CC1CCN(C(=O)Oc2c(Cl)cc(Cl)c3cccnc23)CC1,"activity change, negative = inhibition",[1],inactive: -1.89%
O=C(CO)Nc1ccc([As](=O)(O)O)cc1,"activity change, negative = inhibition",[1],inactive: -0.425% [at 7.66 µM]
COc1ccc(C2=NCC(CBr)S2)cc1 (stereo not drawn),"activity change, negative = inhibition",[1],inactive: 1.75%
CC(=O)N1C2C3N(C(C)=O)C1C1N(C(C)=O)C(C(N1C(C)=O)N3C(C)=O)N2C(C)=O,"activity change, negative = inhibition",[1],inactive: -2.66%
O=[N+]([O-])c1cccc2n[nH]nc12,"activity change, negative = inhibition",[1],inactive: -0.774%
Cc1ccc(NP(=O)(Oc2ccccc2)Oc2ccccc2)nc1,"activity change, negative = inhibition",[1],inactive: -2.01%
O=[N+]([O-])c1cc([N+](=O)[O-])c(CCNc2ccccc2)c([N+](=O)[O-])c1,"activity change, negative = inhibition",[1],inactive: -0.538%
O=[N+]([O-])c1ncn(CCn2ncnc2[N+](=O)[O-])n1,"activity change, negative = inhibition",[1],inactive: 0.964%

# Source: PubChem BioAssay AID1379 (National Center for Advancing Translational Sciences (NCATS), 2008)
